The values below are quoted from earlier work in patent publication US5993783A, “Method and apparatus for pulmonary administration of dry powder α1-antitrypsin” (Inhale Therapeutic Systems, priority 1998, dated 1999).

For this data set the following is noted: Nicolaysen et al. 1975.

As for “albumin tagged with Evans blue: albumin tagged with Evans blue, injected by Nicolaysen et al. to follow the dye in the lung interstitium”, the “time to appearance of the dye in the lymphatics” value (injected) is ≤ 10 min. Moreover, the “time to appearance of dye within the interstitium” value (relative to the lymphatics) was “approximately twice as long”.
